This series relates to COc1cc(/C=C/C(=O)OCC[N+](C)(C)C)cc(OC)c1O. Description: purified protein. The conditions noted are these: free enzyme, co-substrate 20 mM H2O2, citrate-phosphate buffer, optimum pH 7.5, 70 °C (temperature and pH of the kinetic runs not stated outright).

These results are taken from article PMC4928806, “Hydrogen Peroxide-Resistant CotA and YjqC of Bacillus altitudinis Spores Are a Promising Biocatalyst for Catalyzing Reduction of Sinapic Acid and Sinapine in Rapeseed Meal” (PLoS ONE, 2016).

For orientation: Km means the substrate concentration at which the rate is half of its maximum. One may read the kcat as the maximal rate divided by the concentration of active sites. Broadly, the kcat/Km is the second-order rate constant that governs catalysis at low substrate concentration.

In the case of YjqC (Bacillus altitudinis), the Km stood at 1600 µM, the catalytic constant (kcat) was determined as 5.8 s⁻¹ and the specificity constant (kcat/Km) amounted to 4000 M⁻¹ s⁻¹.
